Measured values reported in ChEMBL document CHEMBL1137856, “The pharmacophore hypotheses of I(Kr) potassium channel blockers: novel class III antiarrhythmic agents” (Bioorg Med Chem Lett, 2004).
pIC50: −log10 of the molar value.

Sequences of proteins named here, by UniProt entry; tags and fusion partners are left off. A change or cut given only in a name is not applied to a line headed by its entry.
UniProt Q12809: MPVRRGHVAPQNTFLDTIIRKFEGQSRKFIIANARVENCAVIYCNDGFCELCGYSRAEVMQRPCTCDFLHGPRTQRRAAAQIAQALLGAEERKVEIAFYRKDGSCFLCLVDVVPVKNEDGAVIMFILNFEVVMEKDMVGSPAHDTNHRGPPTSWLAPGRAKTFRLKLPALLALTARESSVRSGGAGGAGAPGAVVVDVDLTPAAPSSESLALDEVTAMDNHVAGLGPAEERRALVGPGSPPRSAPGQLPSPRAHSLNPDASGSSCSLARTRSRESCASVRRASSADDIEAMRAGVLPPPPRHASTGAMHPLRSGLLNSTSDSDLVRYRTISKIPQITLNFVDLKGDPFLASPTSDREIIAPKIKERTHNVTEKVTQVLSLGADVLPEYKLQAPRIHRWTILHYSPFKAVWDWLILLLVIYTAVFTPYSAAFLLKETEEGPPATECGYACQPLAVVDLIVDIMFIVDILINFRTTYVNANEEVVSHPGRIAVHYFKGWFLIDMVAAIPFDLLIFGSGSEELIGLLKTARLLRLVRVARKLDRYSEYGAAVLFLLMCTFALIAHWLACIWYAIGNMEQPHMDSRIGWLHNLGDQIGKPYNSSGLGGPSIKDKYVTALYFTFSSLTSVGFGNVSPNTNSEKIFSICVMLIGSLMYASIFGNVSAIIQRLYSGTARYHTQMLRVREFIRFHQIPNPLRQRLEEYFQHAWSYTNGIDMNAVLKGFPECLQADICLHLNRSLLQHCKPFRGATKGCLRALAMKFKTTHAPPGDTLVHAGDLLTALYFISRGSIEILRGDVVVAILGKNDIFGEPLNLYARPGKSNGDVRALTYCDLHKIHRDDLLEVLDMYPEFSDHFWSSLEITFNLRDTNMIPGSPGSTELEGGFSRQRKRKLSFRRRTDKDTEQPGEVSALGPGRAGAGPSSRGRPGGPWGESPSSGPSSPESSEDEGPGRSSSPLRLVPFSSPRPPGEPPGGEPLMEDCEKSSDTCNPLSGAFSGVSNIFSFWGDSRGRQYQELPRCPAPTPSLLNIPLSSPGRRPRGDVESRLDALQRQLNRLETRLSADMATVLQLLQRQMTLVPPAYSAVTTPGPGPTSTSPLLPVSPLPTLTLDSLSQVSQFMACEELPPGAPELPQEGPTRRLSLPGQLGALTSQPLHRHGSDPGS

Target: Voltage-gated inwardly rectifying potassium channel KCNH2 (Homo sapiens, UniProt Q12809)

**Q.** `O=C1NC(=O)C(c2ccccc2)(c2ccccc2)N1` [PHENYTOIN] was tested. Which pIC50 did it give?
**A.** 3.62
